Data on one substance can be found in US20100158980A1, “DRUG DELIVERY DEVICES FOR DELIVERY OF THERAPEUTIC AGENTS” (priority 2008, published 2010).

The series is described as follows: Solubility of active agents. Conditions: PBS at pH=7.2-7.4. An excerpt:
The active agent may be any active agent suitable to treat the desired condition. […] Examples include, but are not limited to, acetazolamide, dorzolamide HCl, timolol maleate, and ethacrynic acid sodium salt.

Turning to latanoprost arginine salt, the solubility class entry was “moderate solubility”.
